According to publication PMC5156471, “Complementary pharmacological and toxicological characterization data on the pharmacological profile of N-(2,6-dichlorophenyl)-2-(4-methyl-1-piperidinyl) acetamide” (Data in Brief, 2016):

Tests used:
ICR male mice = experiment: Acute toxicity in mice by the Lorke method; conditions: for Dead mice: i.p., dead/treated, observed 14 days
Protocol: Experiments were performed on ICR male mice by the Lorke method. Doses were selected according this method. In both phases, mice were observed daily for 14 days for mortality, toxic effects and behavioral changes. Restlessness, respiratory distress, seizures, diarrhea, motor activity, posture and reflexes were qualitatively determined. Body weight was also monitored. The internal organs (including the stomach, heart, lung, liver, and kidneys) were removed at the end of experiment and visually examined for lesions.

[1] = system: bone marrow polychromatic erythrocytes; assay type: in vivo; conditions: mice, i.p. (LIA, lidocaine 100 mg/kg; cyclophosphamide 40 mg/kg), 24 h, mean±SEM, five animals
Protocol: This test was carried out following standard protocols, [5]. […]. Animals were sacrificed 24 h later and the bone marrow from both femurs was flushed out using 2 mL of saline and centrifuged for 5 min at 3000 rpm. The supernatant was discarded, and the pellet was re-suspended in 0.3 mL of saline. Of this smears were made on glass slides. The slides were fixed with methanol and stained with 10% Wright–Giemsa stain. Cells were blindly scored using a light microscope at 100 X magnification. For the analysis of micronucleated cells, 1000 polychromatic erythrocytes (PCE) per animal were scored. In order to assess the cytotoxic effects of compounds, the ratio of PCE to normochromatic erythrocytes (NCE) was determined in 1000 erythrocytes, [5]. The results are presented as the mean number of micronucleated polychromatic erythrocytes (MNPCE) or the ratio PCE:NCE in individual mice (two smears per animal)±SEM for five animals per group (Table 3).

SMILES: CCN(CC)CC(=O)Nc1c(C)cccc1C [Lidocaine, reference compound]
- Dead mice (ICR male mice; Phase I, 10 mg/kg): 0/3
- Dead mice (ICR male mice; Phase I, 100 mg/kg): 0/3
- Dead mice (ICR male mice; Phase I, 1000 mg/kg): 3/3
- Dead mice (ICR male mice; Phase II, 140 mg/kg): 1/3
- Dead mice (ICR male mice; Phase II, 225 mg/kg): 1/3
- Dead mice (ICR male mice; Phase II, 370 mg/kg): 3/3
- Dead mice (ICR male mice; Phase II, 600 mg/kg): 3/3
- Macroscopic damage of internal organs (stomach, heart, lung, liver, kidneys) (ICR male mice; mice, visual examination at the end of experiment (14 days)): Neither LIA nor lidocaine produced visible macroscopically damage
- MNPCE per 1000 PCE [1]: 4.6±2.1 ^⁎^, ^#
- PCE:NCE [1]: 19.5±1.4
